Experiment [1] addresses T1, Protein kinase C epsilon type (Homo sapiens, UniProt Q02156).
T1 sequence (Q02156 whole entry): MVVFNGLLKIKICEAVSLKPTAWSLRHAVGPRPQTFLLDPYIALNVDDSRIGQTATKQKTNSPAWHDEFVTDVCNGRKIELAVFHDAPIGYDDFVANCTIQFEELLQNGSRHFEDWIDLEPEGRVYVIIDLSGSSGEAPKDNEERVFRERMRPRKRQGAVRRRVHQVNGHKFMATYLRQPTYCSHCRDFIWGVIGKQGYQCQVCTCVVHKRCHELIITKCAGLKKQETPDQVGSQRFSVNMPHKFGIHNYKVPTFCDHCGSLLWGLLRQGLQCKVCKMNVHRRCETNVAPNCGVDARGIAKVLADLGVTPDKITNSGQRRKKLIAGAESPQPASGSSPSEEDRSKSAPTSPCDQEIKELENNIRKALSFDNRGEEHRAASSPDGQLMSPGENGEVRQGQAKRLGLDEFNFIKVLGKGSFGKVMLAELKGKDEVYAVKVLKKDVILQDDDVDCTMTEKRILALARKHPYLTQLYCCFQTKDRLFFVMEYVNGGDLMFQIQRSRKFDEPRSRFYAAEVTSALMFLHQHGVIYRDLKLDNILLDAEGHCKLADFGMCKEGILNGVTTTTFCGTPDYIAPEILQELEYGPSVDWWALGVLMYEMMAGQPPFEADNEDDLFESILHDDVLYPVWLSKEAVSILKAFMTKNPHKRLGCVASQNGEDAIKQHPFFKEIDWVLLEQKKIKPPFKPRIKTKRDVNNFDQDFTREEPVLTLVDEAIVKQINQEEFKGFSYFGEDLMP
As to the kind of experiment: Inhibition of Protein kinase C epsilon.

For experiment [2], the target named is cAMP-dependent protein kinase (PKA) (Homo sapiens, UniProt P22694+P17612+P22612). As to the kind of experiment: Inhibition of cAMP-dependent protein kinase (PKA). The format is protein assay.

In general, IC50 refers to the concentration needed to halve the response being measured. Low values mean higher potency, high ones lower potency. Consider `O=C(N[C@@H]1CNCCCC1OC(=O)c1cc(O)c(C(=O)c2c(O)cccc2C(=O)O)c(O)c1)c1ccc(O)cc1` (some centres undefined), for which half-maximal inhibition in experiment [1] (IC50) was put at 10 nM.
The same measure, in the same setting: as for `O=C(N[C@H]1CNCCCC1OC(=O)c1cc(O)c(C(=O)c2c(O)cccc2C(=O)O)c(O)c1)c1ccc(O)cc1` (some centres undefined), the figure is less than 1000 nM.
`O=C(N[C@@H]1CCCC1OC(=O)c1cc(O)c(C(=O)c2c(O)cccc2C(=O)O)c(O)c1)c1ccc(O)cc1` (some centres undefined) returned a 50% inhibitory concentration (IC50) in experiment [2] of 30 nM.
For the compound `O=C(NC1CNCCCC1OC(=O)c1cc(O)c(C(=O)c2c(O)cccc2C(=O)O)c(O)c1)c1ccc(O)cc1` (racemic), 340 nM corresponded to half-maximal inhibition in experiment [1] (IC50).

These data come from ChEMBL document CHEMBL1129020, “Synthesis and protein kinase C inhibitory activities of indane analogs of balanol” (Bioorg Med Chem Lett, 1996).
